Assay results as given in patent US10034922B2, “Peptide having angiogenesis inhibitory activity and composition containing same” (GemVax & KAEL Co., Ltd., priority 2013, dated 2018).

How the values were obtained:
[1] = test system: HSP90; assay: HSP90 protein level by immunoblotting, serum-free media, 2 h treatment; type: cell-based, human; settings: for amount of HSP90, comparison with HSP inhibitors: 17-AAG 1 μM, KNK437 1 μM; for HSP90 level: increasing concentration, serum-free
Description: Jurkat and MCF7 cells ([…]) were seeded and incubated for 12 hours. After treating the starvation for 2 hours by adding the OPTI-MEM media, same as the shown figure, the cells were treated by the PEP1 at the different concentrations, by the scrambled peptides, […] (1 μM) or KNK437 (1 μM). After the 2-hour incubation, the cells were collected and lysated by using cell lysis buffer (Thermo Scientific, IL, USA). By using Bradford Protein Assay (Bio-Rad, USA), the protein concentration was quantified, and the samples were treated by SDS-PAGE and immunoblotting with α-HSP70 (sc-32239 and sc-66048, Santa Cruz, Calif., USA), α-HSP90 (ab1429, abcam, USA), α-GRP78 (sc-13968), α-HIF-1a (sc-10790) or α-GAPDH (sc-25778) antibodies. The immune reactive band was visualized by the intensive chemiluminescence kit (iNtRoN Biotechnology, INC, Korea), and analyzed by ImageQuant™ LAS-4000 (GE Healthcare Life Science, NJ, US).

[2] = test system: Human umbilical vein endothelial cell induced by VEGF-A; assay: Vascular endothelial cell viability, VEGF-A stimulation; type: cell-based; settings: PEP1 0.05, 0.5, 5 μM, VEGF-A 10 ng/mL, 24 hours
Description: The vascular endothelial cells were plated to a 6-well plate (BD Biosciences, Bedford, Mass., USA) of the 1×10^5 cells/well. The cells were synchronized to the G1/G0 phase by the basic EBM-2 media (Lonza) which has no serum and angiogenesis factors, treated by the PEP1 at each concentration (0.05, 0.5, 5 μM) and stimulated by the VEGF-A (10 ng/mL) for 24 hours, in order to observe the cell proliferation inhibition effect.
For detecting the cell proliferation, by using the trypan blue staining solution (Invitrogen, Carlsbad, Calif., USA), the cells were directly counted in the microscope (×100), and the cell viability was analyzed by using viability assay kit (Merck Millipore Inc.) with Muse™ analyzer.

[3] = test system: MC38 tumor; assay: Proliferating cells in tumor sections (PCNA immunohistochemistry); type: in vivo, mouse; settings: PCNA staining, PEP1 treated group
Description: For evaluating the apoptosis of tumor, by using formalin-fixed and Paraffin-embedded tumor sections, the DNA fragmentation was analyzed by Tunnel assay. According to the manufacturer's instruction, the tumor section was stained by the apoptosis detection kit (ApopTag Peroxidase In Situ, Millipore). The proliferating cells in tumor were detected by using PCNA (Proliferating cell nuclear antigen). For searching the antigen, the tissue sections were deparaffinized in 10 μM citrate (pH6.0) buffer during 40 minutes, hydrated, and heated. The tissues were stained by anti-mouse PCNA monoclonal antibody (ab29, Abcam). After the second treatment and development of antibody, the tissue sections were contrast stained by H&E staining method. And then, the field was randomly selected from the 6 slides of each treatment groups, and the field was analyzed by Leica Qwin software for quantification.

[4] = test system: HSP70; assay: HSP70 in tumor sections (immunohistochemical staining); type: in vivo, mouse; settings: MC38 tumor sections, PEP1 50 μg/kg
Description: (§1) 7 week-old BALB/c athymic mice (Nu/Nu) (10 mice per group; n=20, female, Orient Bio Co. Gyunggido, Korea) were divided into two groups randomly after the subcutaneous injection of murine colon carcinoma MC38 (5×10^5 cells/ml in 200 μl PBS per site). PEP1 (50 μg/kg in 100 μl 0.9% NaCl solution) or PBS were injected into the mice once per 2 days. When the size of tumor reaches 10 mm, the PEP1 and PBS were injected to the inside of tumor. The size of tumor was measured in once per 2 days, and the volume of tumor was calculated following equation; volume (mm3)=((width2×length)/2). All experiments were approved by the Institute for Experimental Animals (College of Medicine, Seoul National University at Seoul, Korea).
Similar to the PCNA staining method, by using immunohistochemical staining, HSP70 and HSP90 proteins expression in tumor were evaluated. The antibodies to the heat shock proteins (HSP70; sc-7298, HSP90; ab1429) was used as the first antibodies. HSP70 and HSP90 proteins expression by tumors was evaluated by immunoblotting using tumor lysate. After freezing by liquid oxygen, the tumor was crashed by the mortar, and homogenized by extraction buffer (20 mM HEPES, pH7.5, 100 mM NaCl, 0.05% Triton X-100, 1 mM DTT, 0.5 mM sodium orthovanadate, 1 mM EDTA, 0.5 mM PMSF, 10 μg/ml aprotinin, 5 μg/ml leupeptin, 2 μg/ml pepstatin). […]

[5] = test system: HSP70; assay: Secreted HSP70 level in blood of tumor-bearing mice (ELISA); type: in vivo, mouse; settings: serum of MC38 tumor mice, PEP1 50 μg/kg
Description: as §1, with “Korea). VEGF secretion in cancer cells was confirmed by ELISA (Enzyme-linked immunosorbent assay). MCF7 and HeLa cells were incubated in the hypoxia circumstance or the normoxia circumstance after adding PEP1 or vehicle during 24 hours. The amount of VEGF in the cell supernant was confirmed by human VEGF immune analysis kit (R&D Systems, USA) following the instruction of the manufacturer. For analyzing the concentration of HSP70 and HSP90 in blood, the blood was collected from the mouse model having tumor. […]” for “Korea).”

Q: With `CC[C@H](C)[C@H](NC(=O)[C@H](Cc1ccccc1)NC(=O)[C@H](CCCNC(=N)N)NC(=O)[C@H](CC(C)C)NC(=O)[C@H](CCCNC(=N)N)NC(=O)[C@H](CO)NC(=O)[C@@H](NC(=O)[C@H](CC(C)C)NC(=O)[C@H](CC(C)C)NC(=O)[C@H](C)NC(=O)[C@@H]1CCCN1C(=O)[C@H](CCCNC(=N)N)NC(=O)[C@H](C)NC(=O)[C@@H](N)CCC(=O)O)[C@@H](C)O)C(=O)N1CCC[C@H]1C(=O)N[C@@H](CCCCN)C(=O)O` [PEP1, EARPALLTSRLRFIPK] as the compound, how does the “decrease of HSP90” value ([1]; Jurkat cells, 5 μM) read?
A: more than 50%

Q: What about the “amount of HSP90, comparison with HSP inhibitors” value ([1]; Jurkat cells, PEP1 5 μM) of the same compound?
A: decreased

Q: What about the HSP90 level ([1]; Jurkat cells) of the same compound?
A: significantly decreased

Q: And the “decrease of HSP90 as compared with the control group” value ([1]; MCF7 cells, 5 μM)?
A: more than 20%

Q: And the “amount of HSP90, comparison with HSP inhibitors” value ([1]; MCF7 cells, PEP1 20 μM)?
A: decrease

Q: What about the HSP90 level ([1]; MCF7 cells) of the same compound?
A: significantly decreased

Q: And the cell survival rate [2]?
A: did not affect

Q: What about the “cell proliferation in tumor (PCNA)” value [3] of the same compound?
A: decrease

Q: And the “HSP70 staining pattern vs PBS treated control” value [4]?
A: weaker staining pattern

Q: And the “HSP70 positive stained part vs control” value ([4]; Leica Qwin quantification)?
A: very small

Q: And the “secreted HSP70 level in blood vs control group” value [5]?
A: lower
